# Laboratory results taken from US20260240766A1, “FORMULATIONS AND USES THEREOF” (Sartorius Albumedix Limited, priority 2023, published 2026).
# What was measured:
# Format in all cases: physicochemical
# [1] = Copper level of albumin samples, semi-quantitative ICP-MS
# Protocol: Approximately 0.2 g of sample from each sample was accurately weighed into the micro-insert vessels of the Milestone Ethos UP microwave system (Analytix, UK). Each sample was prepared in triplicate. The highest purity grade chemicals were used throughout (Ultra High Purity Acids & Reagents, Romil, UK). Sample digestion was performed using 1 mL nitric acid (HNO3), and 0.2 mL of hydro peroxide. Vessels were closed after the addition of the chemicals and digested using the following program: • Temperature ramped to 180° C. over 10 minutes, • Hold at 180° C. for 30 minutes. • Cool to room temperature
# The digest solutions were transferred into 50 mL polyethylene tubes, and made up to 20 g with ultra-pure water 18 MQcm (megaohm-cm) (Elga Water, UK). […] Two microwave batches were run each contained 3 reagent blanks and 1 replicate of a quality control (QC) material. Additionally, two samples per batch were selected at random and spiked with a multi-element standard.
# Semi-quantitative analysis of the digested samples was performed using an Agilent 7700 ICP-MS (Agilent Technologies, UK). The samples were introduced into the plasma using a glass nebuliser (Micromist) and a Scott double pass spray chamber cooled at 2° C. Analysis was performed in pumping mode using the instrument in collision mode with helium as cell gas to reduce potential interferences. The instrument was optimised and tuned for maximum sensitivity. Semi-quantitative analysis is a screening method which uses relative response factors and a multi-element standard solution containing 0.05 μg·g^−1 of Li, Al, Co, Y, Cd, Ce, Tl and U and with Si, Ca and P at 0.3 μg·g^−1 (Romil, UK) which was prepared in 5% HNO3 to match the sample acid concentration.
# The Limit of Quantification (LOQ) was evaluated using at least 6 measurements of the reagent blank in the analytical run. The LOQ was calculated as the mean blank concentration plus 10 times the standard deviation of the blank measurements. All sample results were corrected for the individual dilution factors and the procedural blank. The concentrations for the samples are reported in μg·g^−1 for the sample as received for all elements except Na, K and P which are reported in % (m/m). The results relate only to the items tested.
# AAV2 [2] = assay: Temperature incubation (25° C. then 40° C.) of AAV2 with albumins from different sources, DLS; conditions: for Overall performance in temperature incubation of AAV2: both temperatures (25°, 40° C.), both buffers, compared to rice-derived and serum-derived albumin; for Hydrodynamic radius over time with AAV2: AAV2 9.2E+12 vp/mL in Tris-Citrate+Na2SO4, albumin 5 mg/mL, 25° C. then 40° C.
# Protocol: (§1) After some rounds of formulation scouting, we selected the following conditions: • Tris-Citrate or TC=150 mM Tris, 50 mM Citrate, 25 mM MgCl2, PH=6 • Tris-Citrate+Na2SO4 or TCN=150 mM Tris, 50 mM Citrate, 25 mM MgCl2, PH=6, 50 mM Na2SO4
# (§2) In all the experiments the albumin concentration was 5 mg/mL.
# The incubation at 25° C. and 40° C. was carried out both at low (vp/mL~E+11) and high (vp/mL~E+13) AAV2 concentrations. In either case, the solutions were prepared by diluting the AAV2 stock (Vigene, vg/mL=1.06E+13, vp/mL~5.52E+13, phosphate buffer saline with 0.001% Poloxamer 188) in the target buffer.
# Dynamic Light Scattering (DLS-Dyna Pro Plate reader II, Wyatt, serial #: 221-WPR2) was then used to follow the aggregation over time. To perform the experiment, 25 μL of each sample were transferred to a 384 Aurora well plate (Wyatt). Each formulation was analysed in triplicate. The wells were sealed with 20 μL of paraffin oil to prevent evaporation during the experiment. Before measurement, the plate was spun at 2000×g for 2 minutes to remove air bubbles. The changes in hydrodynamic radii (RH—cumulant analysis, see also Example 8) following incubation at 25° C., followed by the incubation at 40° C., were monitored over time.
# AAV2 [3] = assay: Backgrounded Membrane Imaging of AAV2 with albumins after 4° C. storage or 4 freeze-thaw cycles; conditions: for Stabilisation of AAV2 after 4 freeze-thaw cycles (ThT positive particles ECD ≥2 μm): both buffers; for Stabilising the AAV2 during storage at 4° C. (total and ThT positive particles): 4° C. for 2 months, BMI
# Protocol: as §1, §2
# The samples for freeze-thaw (FT) and 4° C. storage experiments were prepared as described above, but only at high AAV2 concentration (vp/mL~E+13). Then the solutions were transferred into 0.5 mL Eppendorf® LoBind microcentrifuge tubes and these were, respectively, placed in an incubator (4° C. storage) or frozen at −20° C. These last solutions were then subsequently subjected to 4 cycles of freeze-thaw before measurement. The aggregation was measured by using Backgrounded Membrane Imaging (Aura system, Halo Labs, Burlingame, CA, USA). 50 μL of the samples, after storage for 2 months at 4° C. or after 4 freeze-thaw cycles, were spotted, without dilution, onto the membrane of Black Halo Labs plates (Halo Labs) suitable for fluorescence imaging. After imaging in Brightfield and Side Illumination Membrane Intensity (SIMI) the plates were removed from the instrument, a solution of the protein stain Thioflavin T (ThT) was added and incubated for 10 minutes. After the excess dye was removed, the fluorescence was acquired on the fluorescence channel (Ex 440/40 Em 500/40). The ThT stock was prepared by dissolving ~3 mg of ThT dry powder in 1 mL water. The solution was then filtered through a 0.22 μm syringe filter followed by measurement of the concentration by diluting the stock solution in ethanol and using an extinction coefficient of 26,620 M-1 cm-1 at 416 nm (Khurana et al, 2005). The number of particles with an Estimated Circular Diameter (ECD) ≥2 μm were reported as a measure of aggregation. We have also used the number of ThT fluorescent particles with an ECD ≥2 μm as a measure of amyloid-like protein aggregates. In some cases, we reported the number of particles with an ECD ≥2 μm as measured in brightfield subtracted to the ones in the same size range with a SIMI intensity higher than 10. This is named in the plots as: (Brightfield-SIMI). The rationale behind this treatment of the experimental data is that in this way, only protein aggregates are counted, eliminating non-protein particles from the scoring (e.g. due to environmental contamination). Indeed, non-protein aggregates are not flat on the membrane and are characterised by a high SIMI value. On the contrary, protein aggregates are flat on the membrane, with SIMI values around ~0±10. Therefore, by subtracting the SIMI particles from the ones counted in Brightfield, only the protein aggregates are considered.
# [4] = Free cysteine of albumins, Ellman's assay (DTNB)
# Protocol: The amount of free cysteine was determined by using the Ellman's reagent, DTNB ((5,5′-Dithiobis(2-nitrobenzoic acid-Sigma, Cat Number: D8130). A stock solution of DTNB was prepared at 4 mg/mL in assay buffer (0.1 M phosphate buffer, pH 8.0). The reagent was prepared on the day of the measurement and was protected from light.
# For the standard curve, a 1.5 mM stock solution of L-Cysteine (Sigma #30089; MW=121.165 g/mol) was prepared in water on the same day of the assay.
# From this stock, the Cysteine standards solutions were prepared by dilution in assay buffer at the following concentrations: 1.5, 1.25, 1.0, 0.75, 0.5, 0.25, 0 mM.
# Assay solutions were prepared as follows: • 500 μL assay buffer • 50 μL standard or sample • 10 μL Ellman's reagent
# And then were incubated in the dark for 10 minutes before measuring the absorbance at 412 nm.
# The molar ratio [Cys]/[Albumin] was calculated for each sample. Values of the relative ratio (relative to the highest amount of free cysteine sample) are also reported.
# [5] = Aggregation level of albumin stocks (SEC-HPLC % polymer, DLS); conditions: DLS at 5 mg/ml in DPBS
# Protocol: The aggregation level was quantified by SEC-HPLC as “percentage polymer” and qualitatively evaluated by Dynamic Light Scattering (DLS) via changes in the values of the hydrodynamic radius (RH) and polydispersity index (PD index). The polymer amount was measured by loading 20 to 40 mg/ml albumin on a TSK G3000SWXL GPC column (7.8 mm id×300 mm) equilibrated in 20 mM sodium phosphate (Fisher Chemicals), 100 mM sodium sulfate (Fisher Chemicals), 0.05% (w/v) sodium azide (Sigma Chemicals), pH 7.0. The flow rate was 1 mL/min, and the albumin were diluted from the stock into double distilled water. The percentage of albumin polymer in the sample was calculated using: • wherein:
# The DLS measurements were done on a DynaPro™ Plate reader II (Wyatt, serial #: 221-WPR2−λ=826.150 nm). The albumin samples were diluted to 5 mg/ml in DPBS and then plated in triplicate in a 96-well Corning 3880 Half Area non-treated plate. Before measurement the plate was spun at 2000×g for 2 minutes to remove bubbles.
Substance,65 Cu (μg/g in sample as received) [1],"Free cysteine (mole Cys per mole protein), ranking [4]",other results
"Pichia 1: recombinant albumin produced in Pichia, supplier 1",0.1281 µg/g,higher in the ranking,Overall performance in temperature incubation of AAV2 (AAV2 [2]): performed better; Stabilisation of AAV2 after 4 freeze-thaw cycles (ThT positive particles ECD ≥2 μm) (AAV2 [3]): improved performance; Stabilising the AAV2 during storage at 4° C. (total and ThT positive particles) (AAV2 [3]): performed the best
"Pichia 2: recombinant albumin produced in Pichia, supplier 2; believed to have approximately 4-amino acid N-terminal extension",0.3472 µg/g,–,–
Rice 2: recombinant albumin produced in rice,0.5763 µg/g,–,–
Rice 3: recombinant albumin produced in rice,0.5729 µg/g,low in the ranking,"Hydrodynamic radius over time with AAV2 (AAV2 [2]): aggregated; Aggregation level of albumin stock (% polymer, RH) [5]: high levels of aggregates"
"Saccharomyces 1.1: recombinant human albumin (SEQ ID NO: 2) produced in S. cerevisiae, source 1, batch 1; formulated with octanoate",0.03459 µg/g,higher in the ranking,–
"Saccharomyces 1.2: recombinant human albumin produced in S. cerevisiae, source 1, batch 2",0 µg/g,higher in the ranking,Hydrodynamic radius over time with AAV2 (AAV2 [2]): did not change; Overall performance in temperature incubation of AAV2 (AAV2 [2]): performed better; Stabilisation of AAV2 after 4 freeze-thaw cycles (ThT positive particles ECD ≥2 μm) (AAV2 [3]): improved performance; Stabilising the AAV2 during storage at 4° C. (total and ThT positive particles) (AAV2 [3]): performed the best
"Saccharomyces 1.3: recombinant human albumin produced in S. cerevisiae, source 1, batch 3",0 µg/g,higher in the ranking,–
"Saccharomyces 2.1: recombinant human albumin produced in S. cerevisiae, source 2, batch 1; not formulated with octanoate",0 µg/g,–,–
"Saccharomyces 2.2: recombinant human albumin produced in S. cerevisiae, source 2, batch 2",0.04063 µg/g,–,–
"Saccharomyces 2.3: recombinant human albumin produced in S. cerevisiae, source 2, batch 3",0.05297 µg/g,–,–
"Saccharomyces 3.1: recombinant human albumin produced in S. cerevisiae, source 3, batch 1 (expired batch)",0 µg/g,–,–
"Saccharomyces 3.2: recombinant human albumin produced in S. cerevisiae, source 3, batch 2 (expired batch)",0 µg/g,–,–
Serum Derived: A serum-derived albumin,0.2044 µg/g,low in the ranking,"Hydrodynamic radius over time with AAV2 (AAV2 [2]): aggregated; Aggregation level of albumin stock (% polymer, RH) [5]: high amount of polymer"
